According to PubChem BioAssay (NCI):
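Protocol summary: plate cells (96-well), add compound at 5 concentrations, incubate 48 h, interpolate endpoints linearly. The concentration for 50% growth inhibition is given as GI50. TGI: total growth inhibition.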

Key:
Assay in all cases: NCI tumour cell line growth inhibition, 48 h
786-0 renal = test system: 786-0 renal
A549 NSCLC = test system: A549 NSCLC
ACHN renal = test system: ACHN renal
CCRF-CEM leukemia = test system: CCRF-CEM leukemia
COLO 205 colon = test system: COLO 205 colon
DLD-1 colon = test system: DLD-1 colon
DMS 114 small cell lung = test system: DMS 114 small cell lung
DMS 273 small cell lung = test system: DMS 273 small cell lung
EKVX NSCLC = test system: EKVX NSCLC
HCC-2998 colon = test system: HCC-2998 colon
HCT-116 colon = test system: HCT-116 colon
HCT-15 colon = test system: HCT-15 colon
HL-60(TB) leukemia = test system: HL-60(TB) leukemia
HOP-62 NSCLC = test system: HOP-62 NSCLC
HT29 colon = test system: HT29 colon
IGROV1 ovarian = test system: IGROV1 ovarian
K-562 leukemia = test system: K-562 leukemia
KM12 colon = test system: KM12 colon
KM20L2 colon = test system: KM20L2 colon
LOX IMVI melanoma = test system: LOX IMVI melanoma
LXFL 529 NSCLC = test system: LXFL 529 NSCLC
M14 melanoma = test system: M14 melanoma
M19-MEL melanoma = test system: M19-MEL melanoma
MALME-3M melanoma = test system: MALME-3M melanoma
MOLT-4 leukemia = test system: MOLT-4 leukemia
NCI-H226 lung = test system: NCI-H226 lung
NCI-H23 lung = test system: NCI-H23 lung
NCI-H322M lung = test system: NCI-H322M lung
NCI-H460 lung = test system: NCI-H460 lung
NCI-H522 lung = test system: NCI-H522 lung
OVCAR-3 ovarian = test system: OVCAR-3 ovarian
OVCAR-8 ovarian = test system: OVCAR-8 ovarian
RPMI-8226 leukemia = test system: RPMI-8226 leukemia
RXF 393 renal = test system: RXF 393 renal
SF-268 CNS = test system: SF-268 CNS
SF-295 CNS = test system: SF-295 CNS
SF-539 CNS = test system: SF-539 CNS
SK-MEL-28 melanoma = test system: SK-MEL-28 melanoma
SK-OV-3 ovarian = test system: SK-OV-3 ovarian
SN12C renal = test system: SN12C renal
SNB-19 CNS = test system: SNB-19 CNS
SNB-75 CNS = test system: SNB-75 CNS
SNB-78 CNS = test system: SNB-78 CNS
SR leukemia = test system: SR leukemia
SW-620 colon = test system: SW-620 colon
TK-10 renal = test system: TK-10 renal
U251 CNS = test system: U251 CNS
UACC-257 melanoma = test system: UACC-257 melanoma
UACC-62 melanoma = test system: UACC-62 melanoma
UO-31 renal = test system: UO-31 renal

With `O=[N+]([O-])c1cc([N+](=O)[O-])c(O)c([N+](=O)[O-])c1.OC1CC2CCN3Cc4cc5c(cc4[C@H](C1O)C23)OCO5` (stereo not given in full) the GI50 (786-0 renal) was over 100 µM, the TGI (786-0 renal) was over 100 µM and the GI50 (A549 NSCLC) was over 100 µM. For the same compound, the TGI (A549 NSCLC) was over 100 µM, the GI50 (ACHN renal) was over 100 µM and the TGI (ACHN renal) was over 100 µM. The GI50 (CCRF-CEM leukemia) was over 100 µM, the TGI (CCRF-CEM leukemia) was over 100 µM and the GI50 (COLO 205 colon) was over 100 µM. It also gave a TGI (COLO 205 colon) of over 100 µM, a GI50 (DLD-1 colon) of over 100 µM and a TGI (DLD-1 colon) of over 100 µM. For the same compound, the GI50 (DMS 114 small cell lung) was over 100 µM, the TGI (DMS 114 small cell lung) was over 100 µM and the GI50 (DMS 273 small cell lung) was over 100 µM. It also gave a TGI (DMS 273 small cell lung) of over 100 µM, a GI50 (EKVX NSCLC) of over 100 µM and a TGI (EKVX NSCLC) of over 100 µM. It also gave a GI50 (HCC-2998 colon) of over 100 µM, a TGI (HCC-2998 colon) of over 100 µM and a GI50 (HCT-116 colon) of over 100 µM. The TGI (HCT-116 colon) was over 100 µM, the GI50 (HCT-15 colon) was over 100 µM and the TGI (HCT-15 colon) was over 100 µM. For the same compound, the GI50 (HL-60(TB) leukemia) was over 100 µM, the TGI (HL-60(TB) leukemia) was over 100 µM and the GI50 (HOP-62 NSCLC) was over 100 µM. It also gave a TGI (HOP-62 NSCLC) of over 100 µM, a GI50 (HT29 colon) of over 100 µM and a TGI (HT29 colon) of over 100 µM. For the same compound, the GI50 (IGROV1 ovarian) was over 100 µM, the TGI (IGROV1 ovarian) was over 100 µM and the GI50 (K-562 leukemia) was over 100 µM. It also gave a TGI (K-562 leukemia) of over 100 µM, a GI50 (KM12 colon) of over 100 µM and a TGI (KM12 colon) of over 100 µM. It also gave a GI50 (KM20L2 colon) of over 100 µM, a TGI (KM20L2 colon) of over 100 µM and a GI50 (LOX IMVI melanoma) of over 100 µM. It also gave a TGI (LOX IMVI melanoma) of over 100 µM, a GI50 (LXFL 529 NSCLC) of over 100 µM and a TGI (LXFL 529 NSCLC) of over 100 µM. The GI50 (M14 melanoma) was over 100 µM, the TGI (M14 melanoma) was over 100 µM and the GI50 (M19-MEL melanoma) was over 100 µM. The TGI (M19-MEL melanoma) was over 100 µM, the GI50 (MALME-3M melanoma) was over 100 µM and the TGI (MALME-3M melanoma) was over 100 µM. It also gave a GI50 (MOLT-4 leukemia) of over 100 µM, a TGI (MOLT-4 leukemia) of over 100 µM and a GI50 (NCI-H226 lung) of over 100 µM. The TGI (NCI-H226 lung) was over 100 µM, the GI50 (NCI-H23 lung) was over 100 µM and the TGI (NCI-H23 lung) was over 100 µM. The GI50 (NCI-H322M lung) was over 100 µM, the TGI (NCI-H322M lung) was over 100 µM and the GI50 (NCI-H460 lung) was over 100 µM. It also gave a TGI (NCI-H460 lung) of over 100 µM, a GI50 (NCI-H522 lung) of over 100 µM and a TGI (NCI-H522 lung) of over 100 µM. The GI50 (OVCAR-3 ovarian) was over 100 µM, the TGI (OVCAR-3 ovarian) was over 100 µM and the GI50 (OVCAR-8 ovarian) was over 100 µM. The TGI (OVCAR-8 ovarian) was over 100 µM, the GI50 (RPMI-8226 leukemia) was over 100 µM and the TGI (RPMI-8226 leukemia) was over 100 µM. It also gave a GI50 (RXF 393 renal) of over 100 µM, a TGI (RXF 393 renal) of over 100 µM and a GI50 (SF-268 CNS) of over 100 µM. The TGI (SF-268 CNS) was over 100 µM, the GI50 (SF-295 CNS) was over 100 µM and the TGI (SF-295 CNS) was over 100 µM. For the same compound, the GI50 (SF-539 CNS) was over 100 µM, the TGI (SF-539 CNS) was over 100 µM and the GI50 (SK-MEL-28 melanoma) was over 100 µM. It also gave a TGI (SK-MEL-28 melanoma) of over 100 µM, a GI50 (SK-OV-3 ovarian) of over 100 µM and a TGI (SK-OV-3 ovarian) of over 100 µM. It also gave a GI50 (SN12C renal) of over 100 µM, a TGI (SN12C renal) of over 100 µM and a GI50 (SNB-19 CNS) of over 100 µM. The TGI (SNB-19 CNS) was over 100 µM, the GI50 (SNB-75 CNS) was over 100 µM and the TGI (SNB-75 CNS) was over 100 µM. The GI50 (SNB-78 CNS) was over 100 µM, the TGI (SNB-78 CNS) was over 100 µM and the GI50 (SR leukemia) was over 100 µM. It also gave a TGI (SR leukemia) of over 100 µM, a GI50 (SW-620 colon) of over 100 µM and a TGI (SW-620 colon) of over 100 µM. It also gave a GI50 (TK-10 renal) of over 100 µM, a TGI (TK-10 renal) of over 100 µM and a GI50 (U251 CNS) of over 100 µM. The TGI (U251 CNS) was over 100 µM, the GI50 (UACC-257 melanoma) was over 100 µM and the TGI (UACC-257 melanoma) was over 100 µM. It also gave a GI50 (UACC-62 melanoma) of over 100 µM, a TGI (UACC-62 melanoma) of over 100 µM and a GI50 (UO-31 renal) of over 100 µM. The TGI (UO-31 renal) was over 100 µM.
